## Yeast mating assay 2: variants of the scFv Ab-91

Target peptide (SARS-CoV-2 spike, HR2 region): PDVDLGDISGINAS

Parent: Ab-91, a human scFv built as VL, a (GGGGS)3 linker, VH. Only the CDRs of the heavy chain vary.
VL: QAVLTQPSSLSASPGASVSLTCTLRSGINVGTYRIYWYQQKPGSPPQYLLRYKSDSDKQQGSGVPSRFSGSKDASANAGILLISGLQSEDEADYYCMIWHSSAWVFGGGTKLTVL
VH: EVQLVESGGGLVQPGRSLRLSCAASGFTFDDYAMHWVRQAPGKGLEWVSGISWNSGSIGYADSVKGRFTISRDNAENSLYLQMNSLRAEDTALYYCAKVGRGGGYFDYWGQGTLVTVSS

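The starting antibody came from a phage panning campaign against this peptide. AAYL51 was designed without a model: most single CDR substitutions and a random sample of double and triple ones. In AlphaSeq, yeast of one mating type display the scFv and yeast of the other type display the target. Pairs that bind mate more often; barcode pairs of the diploids are counted by sequencing. Each replicate has its own calibration line, from reference interactions of the BCL2 family. There are three technical replicates.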

Variants are written as CDR1, CDR2 and CDR3 of the heavy chain (limits as in the source). Parent: GFTFDDYAMH, GISWNSGSIGYADSVK, VGRGGGYFDY. Every variant below is changed at F29 of the VH (sequential numbering). Numbers give log10(Kd / nM), so 0 is 1 nM and 3 is 1 µM. Smaller is tighter. The mean shown is taken over the replicates in which the pair was detected. A pair that was not seen in that replicate is written "nd"; this usually means weak binding, but a binder can also be missed. Background: pairings of library AAYL51 with three empty control strains gave a value in 21% of cases (median 4.54, 5th percentile 3.26). Values in that range, when seen in few replicates, are hard to tell from nonspecific mating.

* GFTADDYAMH | GIEPNSGSIGYADSVK | VGRGGGYFDY: nd, nd, nd
* GFTQDDYAMH | GISWNSGNIGYADSVK | VGRGGGKFDY: nd, 4.97, nd
* GFTHKDYAMH | GISWNSGSIIYADSVK | VGRGGGYFDY: nd, nd, nd
* GFTSDDYAKH | GISWNSGSIGYADSVM | VGRGGGYFDY: nd, nd, nd
* GFTDDDYAMH | HISWNSGSIGYADSVK | VGRVGGYFDY: nd, nd, nd
* GFTKDDYAMH | GISWVSGSAGYADSVK | VGRGGGYFDY: nd, nd, nd
* GFTVDDYAMH | SISWNSGSIGYADSVK | VGRGGLYFDY: nd, 4.55, nd
* GFFHDDYAMH | GISWNSGSIGYADSVK | VGRGGGNFDY: 4.31, nd, nd
* GFTCDDYAMH | GISWNSGSIGYADSVK | VGRGGGYFDY: nd, nd, nd
* GFTHDDYAMH | GASWNSGSIGYADSVK | VGRGGGYFDY: nd, nd, 4.06
* GFTPDDYAMH | GISWNSGSIGYCDSVK | VGRGGHYFDY: nd, 3.85, 4.34 (mean 4.10)
* GFTMDDYAMI | GISWNSGSIGYADHVK | VGRGGGYFDY: nd, nd, nd
* GFTWDDYAMH | GFSWNSGSIGYADSVK | VGRNGGYFDY: 5.43, 5.56, 3.95 (mean 4.98)
* GFTCDDYAMH | GISWNSTSIGYWDSVK | VGRGGGYFDY: 6.08, 7.05, nd (mean 6.57)
* GFTWDDYAMH | GISWNSGSIGYADSCK | VGRLGGYFDY: 5.03, nd, 3.86 (mean 4.44)
* GFTVDDYAMH | GIFWNSGSIGYADSVK | VGRGGGYFDY: 4.94, 6.11, 4.73 (mean 5.26)
* GFTSDDYAMH | GISWNSGSIGYGDSVK | VGRGGGYFDY: nd, nd, nd
* MFTADDYAMT | GISWNSGSIGYADSVK | VGRGGGYFDY: nd, 3.88, nd
* GFTTDDYARH | GISWNSGSFGYADSVK | VGRGGGYFDY: nd, 5.51, 4.56 (mean 5.04)
* GWTDDDYAMH | GISWNSGSIGYADSVK | VGRGGGYFHY: nd, 5.00, 4.23 (mean 4.62)
* GFTRDDYAMH | GMSWNSGSIGYADSVK | VGRGGGYFMY: nd, nd, nd
* GFTSDDYAMH | GISWNSGSEGYADSVC | VGRGGGYFDY: nd, nd, nd
* GFTHDDYAMH | QISWNSGSIGYADSVL | VGRGGGYFDY: 3.57, 5.68, nd (mean 4.62)
* GFTEDDYLMV | GISWNSGSIGYADSVK | VGRGGGYFDY: nd, nd, nd
* GFTTDDYAMH | GISWNSGSIGYADSKK | VGRGAGYFDY: nd, nd, nd
* GFTNDDHAMA | GISWNSGSIGYADSVK | VGRGGGYFDY: nd, nd, nd
* AFTSDDYAMH | GISWNSGSIGYADSVK | VGRGGGYFDY: 4.49, nd, 3.78 (mean 4.13)
* GFTQDDYNRH | GISWNSGSIGYADSVK | VGRGGGYFDY: nd, nd, nd
* GFTIDDYAMH | GISWCSGSIGYADSVK | VGRGGGYFDY: nd, nd, nd
* GFTIDDYAMH | GISWNSGSIGYASSQK | VGRGGGYFDY: 6.31, 5.95, nd (mean 6.13)
* GFTMYDYAMH | GISWNSGSIGYADSVK | VGRGGGQFDY: 1.26, 1.28, 1.10 (mean 1.21)
* KFTLDDIAMH | GISWNSGSIGYADSVK | VGRGGGYFDY: nd, 5.51, nd
* GFDLDDYAMH | GISWNSGSIGYADSPK | VGRGGGYFDY: nd, nd, nd
* GFTKDDYAMH | GISWNSGSIGYQDSVK | VGRGPGYFDY: 1.30, 1.12, 0.46 (mean 0.96)
* GFTRDDYAMH | GISWNSGSIGYADSVK | VGRGGGYFDY: 4.96, nd, nd
* GFTKVDYAMH | GISWNSGSIGCADSVK | VGRGGGYFDY: nd, nd, nd
* GFTVDDYAMH | GISWNSGSIGYADSVK | VGRGGGYFDY: 3.19, nd, nd
* GFTSDDYAWH | GISWNSGSIGEADSVK | VGRGGGYFDY: 5.58, nd, nd
* GFTMDDYAMH | GILWNSGSIGYADSVK | VCRGGGYFDY: 5.03, nd, nd
* GFTVDDYAMH | GWSWNSGSIGYIDSVK | VGRGGGYFDY: nd, nd, nd
* GFTSDDYAMH | GISWNSGSIGYADSVK | VGRGGGYFDY: nd, 4.01, nd
* GFTVDWYAMH | GISWNSGSIGYADSVS | VGRGGGYFDY: nd, nd, nd
* GFTDDQYAMH | GISWNSGSIGYADSWK | VGRGGGYFDY: nd, nd, nd
* QFTGDDYAMH | GISWNSGSIGYADSVK | VGRGGGYFDS: 4.74, 4.61, 5.99 (mean 5.11)
* GFTHDDYAMH | GISWNSGSIGYADSVK | VNRGGGRFDY: 1.53, 2.00, 1.97 (mean 1.83)
* GFTDDDYAMH | GISWNSGSIGYADSVK | VGVGGGYFDL: 5.37, 6.07, 6.07 (mean 5.84)
* GFTTDDYAMH | GISWNSGSIGYADSVK | VGRGGGYFDY: nd, 6.30, 3.83 (mean 5.06)
* GFTSDDYAMH | GISWNSASIGYADSVK | VGRGGGYFDY: nd, nd, nd
* GFTQDDYAYH | GISWNSGSIGYADSVK | EGRGGGYFDY: nd, nd, nd
* GFTIDDYAMH | GISWISGNIGYADSVK | VGRGGGYFDY: nd, nd, 2.11
* GFTVDDYAMQ | GISWNSGSIGYADSVK | VGRGGGYFDY: 4.95, 5.23, 5.23 (mean 5.14)

The closing 8 entries, repeated:

{"CDR-H1": "QFTGDDYAMH", "CDR-H2": "GISWNSGSIGYADSVK", "CDR-H3": "VGRGGGYFDS", "replicates, log10 nM": "4.74, 4.61, 5.99", "log10 Kd (nM), mean": "5.11"}
{"CDR-H1": "GFTHDDYAMH", "CDR-H2": "GISWNSGSIGYADSVK", "CDR-H3": "VNRGGGRFDY", "replicates, log10 nM": "1.53, 2.00, 1.97", "log10 Kd (nM), mean": "1.83"}
{"CDR-H1": "GFTDDDYAMH", "CDR-H2": "GISWNSGSIGYADSVK", "CDR-H3": "VGVGGGYFDL", "replicates, log10 nM": "5.37, 6.07, 6.07", "log10 Kd (nM), mean": "5.84"}
{"CDR-H1": "GFTTDDYAMH", "CDR-H2": "GISWNSGSIGYADSVK", "CDR-H3": "VGRGGGYFDY", "replicates, log10 nM": "nd, 6.30, 3.83", "log10 Kd (nM), mean": "5.06"}
{"CDR-H1": "GFTSDDYAMH", "CDR-H2": "GISWNSASIGYADSVK", "CDR-H3": "VGRGGGYFDY", "replicates, log10 nM": "nd, nd, nd", "log10 Kd (nM), mean": "nd"}
{"CDR-H1": "GFTQDDYAYH", "CDR-H2": "GISWNSGSIGYADSVK", "CDR-H3": "EGRGGGYFDY", "replicates, log10 nM": "nd, nd, nd", "log10 Kd (nM), mean": "nd"}
{"CDR-H1": "GFTIDDYAMH", "CDR-H2": "GISWISGNIGYADSVK", "CDR-H3": "VGRGGGYFDY", "replicates, log10 nM": "nd, nd, 2.11", "log10 Kd (nM), mean": "2.11"}
{"CDR-H1": "GFTVDDYAMQ", "CDR-H2": "GISWNSGSIGYADSVK", "CDR-H3": "VGRGGGYFDY", "replicates, log10 nM": "4.95, 5.23, 5.23", "log10 Kd (nM), mean": "5.14"}

For reference, the parent read 1.86 as the reference entry and 0.88 as a member of this library.

Source: Engelhart et al. 2022 (doi:10.1038/s41597-022-01779-4), MIT Lincoln Laboratory and A-Alpha Bio; data file from the FLAb repository.